Test results from patent US20100081624A1, “SELECTIVE PEPTIDES THAT INHIBIT THE BIOLOGICAL ACTIVITY OF CALCINEURIN” (Consejo Superior de Investigaciones Cientficas, priority 2005, published 2010).

Target: Calcineurin (CN), heterodimer of catalytic sub-unit CnA and regulatory sub-unit CnB (Sigma)
Assay: dose-dependent competition of GST-NFATc2 pull-down of CN, densitometry (FIG. 5)

concentration that totally blocked the binding: 50 µM
Substance: LxVPc1 peptide (synthetic peptide with the LxVP sequence of NFATc1)
